Only a part is listed here, and it is no random draw.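 The endpoint reported here, percent growth, reads 100 for growth as untreated, 0 for no net growth and -100 for all cells dead.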 Active and inactive are the calls of the source. How the source made its calls: active means growth percent below 10; inactive means the rest.
How the values were obtained:
Test in all cases: NCI-60 one-dose screen, 48 h (100 = growth as untreated, 0 = no growth, -100 = all killed)
Details in all cases: 10 µM unless noted
[1] = test system: NCI-H23 lung
[2] = test system: NCI-H226 lung
[3] = test system: NCI-H322M lung
[4] = test system: HOP-62 NSCLC
[5] = test system: NCI-H460 lung
[6] = test system: HOP-92 NSCLC
[7] = test system: NCI-H522 lung
[8] = test system: A549/ATCC NSCLC
[9] = test system: 786-0 renal
[10] = test system: COLO 205 colon
[11] = test system: DU-145 prostate
[12] = test system: K-562 leukemia
[13] = test system: MALME-3M melanoma
[14] = test system: MDA-MB-231 breast
[15] = test system: SF-268 CNS
[16] = test system: SF-295 CNS
[17] = test system: SF-539 CNS
[18] = test system: UACC-257 melanoma
[19] = test system: M14 melanoma
[20] = test system: RXF 393 renal

Compound	growth [1]	growth [2]	growth [3]	growth [4]	growth [5]	growth [6]	growth [7]	growth [8]	growth [9]	growth [10]	growth [11]	growth [12]	growth [13]	growth [14]	growth [15]	growth [16]	growth [17]	growth [18]	growth [19]	growth [20]
O=C(c1ccc([N+](=O)[O-])cc1)N(CCCl)CCCl	inactive: 117%	inactive: 100%	inactive: 98.6%	inactive: 105%	inactive: 112%	inactive: 103%	inactive: 97%	inactive: 93.5%	inactive: 106%	inactive: 111%	inactive: 108%	inactive: 111%	inactive: 114%	inactive: 104%	inactive: 106%	inactive: 95.6%	inactive: 108%	inactive: 72.7%	inactive: 115%	
NCCc1ccc(N(CCCl)CCCl)cc1	inactive: 65.1%	inactive: 80.4%	inactive: 109%	inactive: 66.2%	inactive: 23.3%	inactive: 87.2%	inactive: 36.6%	inactive: 53.7%	inactive: 32.8%	inactive: 70.7%	inactive: 48.3%	inactive: 59%	inactive: 91.6%	inactive: 103%	inactive: 49%		inactive: 35%	inactive: 65.1%	inactive: 60.8%	
O=C(Nc1cc([As](=O)(O)O)ccc1O)c1ccccc1	inactive: 102%	inactive: 90.6%	inactive: 132%	inactive: 98.3%	inactive: 101%	inactive: 96.3%	active: -25.3%	inactive: 109%	inactive: 98.5%	inactive: 113%	inactive: 113%	inactive: 82.3%	inactive: 106%	inactive: 83.5%	inactive: 99.7%	inactive: 113%	inactive: 93.9%	inactive: 87.9%	inactive: 102%	
CN(C)C(=O)Oc1ccc(/C=N/NC(N)=S)nc1	inactive: 92.7%	inactive: 96%	inactive: 59.7%	inactive: 91.5%	inactive: 84.5%	inactive: 99.3%	inactive: 90.8%	inactive: 81.6%	inactive: 98.7%	inactive: 115%	inactive: 91.5%	inactive: 96.5%	inactive: 110%	inactive: 74.5%	inactive: 81.5%		inactive: 89.8%	inactive: 106%	inactive: 90.7%	
ClCCN1CCc2ccccc2C1	inactive: 97.4%	inactive: 96.9%	inactive: 97.4%	inactive: 107%	inactive: 97.5%	inactive: 79.5%		inactive: 93.1%	inactive: 97.1%	inactive: 124%	inactive: 116%	inactive: 95.2%	inactive: 96.8%	inactive: 102%	inactive: 107%	inactive: 61%	inactive: 95.8%	inactive: 94.6%	inactive: 97.8%	inactive: 108%
CCOC(=O)NC(C)(CCC(C)(NC(=O)OCC)P(=O)(O)Nc1ncccn1)P(=O)(O)Nc1ncccn1 (stereo not drawn)	inactive: 101% [100 µM]	inactive: 96.4% [100 µM]	inactive: 98% [100 µM]	inactive: 96.8% [100 µM]	inactive: 110% [100 µM]	inactive: 96.7% [100 µM]	inactive: 105% [100 µM]		inactive: 102% [100 µM]	inactive: 109% [100 µM]	inactive: 112% [100 µM]	inactive: 99.5% [100 µM]	inactive: 102% [100 µM]	inactive: 99.7% [100 µM]	inactive: 102% [100 µM]	inactive: 101% [100 µM]	inactive: 100% [100 µM]	inactive: 103% [100 µM]	inactive: 100% [100 µM]	inactive: 102% [100 µM]
CCN(CC)C(=O)Oc1ccc(/C=N/NC(N)=S)nc1	inactive: 90.9%	inactive: 86.6%	inactive: 59.1%	inactive: 75.8%	inactive: 70.4%	inactive: 96.4%	inactive: 83%	inactive: 67.1%	inactive: 88.1%	inactive: 103%	inactive: 76.5%	inactive: 95.5%	inactive: 106%	inactive: 67.8%	inactive: 68.5%		inactive: 87%	inactive: 79.1%	inactive: 84%	
Cc1cccc(Nc2c([N+](=O)[O-])cc([N+](=O)[O-])cc2[N+](=O)[O-])c1	inactive: 103%	inactive: 90.9%	inactive: 104%	inactive: 122%	inactive: 95.9%	inactive: 74.6%	inactive: 50%	inactive: 95.5%	inactive: 107%	inactive: 77.2%	inactive: 104%	inactive: 78.6%	inactive: 82.6%	inactive: 92.9%	inactive: 96.3%		inactive: 101%	inactive: 93.5%	inactive: 101%	inactive: 112%
O=C(C(=O)c1ccc([N+](=O)[O-])cc1[N+](=O)[O-])c1ccc([N+](=O)[O-])cc1[N+](=O)[O-]	inactive: 93.8%	inactive: 95.4%	inactive: 103%	inactive: 101%	inactive: 105%	inactive: 102%	inactive: 60.8%	inactive: 103%	inactive: 106%	inactive: 110%	inactive: 113%	inactive: 71.7%	inactive: 101%		inactive: 96%	inactive: 109%	inactive: 101%	inactive: 96.5%	inactive: 90.1%	inactive: 133%
